Values quoted from earlier work as cited in patent US11229230B2, “Antioxidant-enriched multivitamin composition and methods of use” (Callion Pharma, LLC, priority 2016, dated 2022).

Conditions: individuals suffering from chronic childhood cholestasis

vitamin D absorption: increase vitamin D absorption
Substance: d-α-tocopherol polyethylene glycol 1000 succinate [TPGS]
